Results taken from ChEMBL document CHEMBL1149187, “Design, synthesis, and biological activity of 4-[(4-cyano-2-arylbenzyloxy)-(3-methyl-3H-imidazol-4-yl)methyl]benzonitriles as potent and selective farnesyltransferase inhibitors” (J Med Chem, 2004).

Target: Protein farnesyltransferase (Homo sapiens, UniProt P49354+P49356)
Experiment: Inhibition of Farnesyltransferase
Format: protein-complex assay

Work on `NC(=O)N1CCC(CC(=O)N2CCC([C@H]3c4ncc(Br)cc4CCc4cc(Cl)cc(Br)c43)CC2)CC1` [LONAFARNIB] yielded an IC50 of 2 nM.
